Data set [1] addresses USP1/UAF1 enzyme (Homo sapiens, UniProt O94782). The experiment in a line: USP1/UAF1 deubiquitination assay (ubiquitin-rhodamine 110 substrate). Particulars: read-out: USP1 IC50 (Ub-Rho). Here is the method:
Certain Compounds of the Disclosure were assessed for USP1/UAF1 activity in a Ubiquitin Rhodamine assay modified from those described previously.
Deubiquitinase activity was measured using ubiquitin-rhodamine 110 as a substrate. Cleavage of the amide bond between rhodamine and the c-terminal glycine of ubiquitin yields an increase in fluorescence signal. The assay was conducted in 20 μl total volume of assay buffer (50 mM Tris-HCl, pH 7.8, 0.5 mM EDTA, 0.01% Bovine Serum Albumin, 1 mM DTT, 0.01% Tween-20), and 0.05 nM USP1/UAF1 enzyme. Reaction was initiated by addition of 150 nM Ubiquitin-rhodamine (Boston Biochem) substrate.
Compounds of the Disclosure, dissolved in DMSO were tested in dose response format, beginning at […].
The example compounds listed below were added to enzyme/assay buffer mix and incubated 10 min. Substrate mix was added, and reaction mix was read in kinetic mode for 30 min at Ex480/Em540 and IC50 response curves were plotted.
Data for all assay formats was calculated as percent inhibition compared with control wells. Percent inhibition was calculated using the following equation: % inhibition=100×[1−(X−min)/(max−min)], where X is the raw data readout, min is the average of the no enzyme control wells (n=32), max is the average of the DMSO control well (n=32). IC50 values were calculated using the standard four parameter curve fitting algorithm in either Prism GraphPad (La Jolla, Calif.) software, or Collaborative Drug Discovery (Burlingame, Calif.) CDD Vault. See Chem. Biol. 20(1): 55-62 (Jan. 24, 2013); Bioorg. Med. Chem. Lett. 23(20): 5660-5666 (Oct. 15, 2013).

Chains of the proteins cited; added tags and fusions are not shown.
UniProt O94782, whole entry: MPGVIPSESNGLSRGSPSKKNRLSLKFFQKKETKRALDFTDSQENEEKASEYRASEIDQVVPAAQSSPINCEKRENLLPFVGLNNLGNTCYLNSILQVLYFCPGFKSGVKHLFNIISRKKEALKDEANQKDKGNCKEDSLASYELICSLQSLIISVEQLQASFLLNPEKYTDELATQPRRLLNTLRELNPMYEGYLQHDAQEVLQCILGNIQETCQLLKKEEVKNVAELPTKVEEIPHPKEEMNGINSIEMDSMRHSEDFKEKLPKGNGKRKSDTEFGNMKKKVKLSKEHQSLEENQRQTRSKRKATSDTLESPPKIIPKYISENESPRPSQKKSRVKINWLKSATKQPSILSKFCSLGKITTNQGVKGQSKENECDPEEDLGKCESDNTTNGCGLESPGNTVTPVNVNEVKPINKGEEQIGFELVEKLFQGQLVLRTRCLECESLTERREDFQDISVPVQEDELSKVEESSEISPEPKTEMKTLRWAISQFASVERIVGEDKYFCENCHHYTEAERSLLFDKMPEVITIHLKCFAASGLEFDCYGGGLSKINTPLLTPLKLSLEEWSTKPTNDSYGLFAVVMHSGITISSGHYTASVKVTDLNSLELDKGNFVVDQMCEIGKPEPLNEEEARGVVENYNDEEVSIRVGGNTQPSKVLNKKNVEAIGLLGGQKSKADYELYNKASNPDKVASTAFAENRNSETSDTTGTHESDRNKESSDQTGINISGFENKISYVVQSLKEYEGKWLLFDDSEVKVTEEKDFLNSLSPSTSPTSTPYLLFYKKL
UniProt Q8TAF3, whole entry partner: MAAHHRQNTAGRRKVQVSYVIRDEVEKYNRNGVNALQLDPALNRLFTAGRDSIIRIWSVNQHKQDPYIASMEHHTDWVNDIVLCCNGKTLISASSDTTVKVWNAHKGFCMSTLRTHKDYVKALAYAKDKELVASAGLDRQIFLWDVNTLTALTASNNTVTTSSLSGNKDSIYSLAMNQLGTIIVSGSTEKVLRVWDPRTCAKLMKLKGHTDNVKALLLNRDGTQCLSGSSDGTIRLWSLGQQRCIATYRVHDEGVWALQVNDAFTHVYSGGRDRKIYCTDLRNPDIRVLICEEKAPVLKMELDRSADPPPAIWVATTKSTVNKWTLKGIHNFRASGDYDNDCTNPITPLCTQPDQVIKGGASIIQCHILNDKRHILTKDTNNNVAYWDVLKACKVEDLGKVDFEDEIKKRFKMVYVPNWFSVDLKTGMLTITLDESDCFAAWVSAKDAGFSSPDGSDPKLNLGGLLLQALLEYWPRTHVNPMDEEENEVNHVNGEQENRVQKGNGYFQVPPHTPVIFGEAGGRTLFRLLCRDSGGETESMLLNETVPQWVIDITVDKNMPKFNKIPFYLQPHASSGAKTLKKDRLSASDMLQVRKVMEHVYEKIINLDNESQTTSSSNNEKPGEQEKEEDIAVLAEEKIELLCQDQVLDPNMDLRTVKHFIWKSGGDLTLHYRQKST

Data set [2] in a line: ADME solubility determination in PBS at pH 2.0 and pH 7.4. The note with it: 24 hours; for Solubility at pH 2.0 (μM): PBS pH 2.0, 25° C.; for Solubility at pH 7.4 (μM): PBS pH 7.4, 25° C. Here is the method:
Certain Compounds of the Disclosure were assessed for ADME solubility at pH 2.0 and pH 7.4.
Stock solutions were prepared by adding each compound to DMSO at a concentration of 10 mM. Samples were prepared by adding 50 μL of each stock solution to separate vials. The vials were loaded onto a 96-well rack and dried. 500 μL of Phosphate Buffered Saline (PBS) pH 7.4 or PBS pH 2.0 were added into each vial. The vials were then shaken at 25° C. and 1,100 rpm for 24 hours.
After 24 hours, the vials were centrifuged at 3220 G and 25° C. for 30 minutes. The supernatant fluid was analyzed by LC-MS/MS against a standard of known concentration. The solubility of each sample was then calculated using the equation below: […]
where DF is the dilution factor.

Data set [3] deals with Ub-PCNA levels in the nucleus of ES2 cells (USP1 activity). The experiment in a line: ES2 Ub-PCNA immunofluorescence (IF) assay. Particulars: read-out: USP1 IC50 (Ub-PCNA), 3 hours. The procedure: USP1 is a deubiquitinating enzyme that removes ubiquitin from mono-ubiquitinated Proliferating Cell Nuclear Antigen (Ub-PCNA). The levels of Ub-PCNA in the nucleus of cells can be used to assess the activity of USP1. An immunofluorescence assay can be established to monitor Ub-PCNA levels in the ovarian cancer cell line, ES2.
An assay can be performed by first plating 5000 ES2 cells per well in black 96 well plates (Corning #3904) and then incubating overnight at 37° C. and 5% CO2. Compounds, resuspended in DMSO, can be added to the cells, to a final DMSO concentration of 0.3%. Plates can be incubated at 37° C. and 5% CO2 for 3 hours.
Cells can be then fixed and stained by first removing the media from each plate and fixing the cells with −20° C. methanol for 5 minutes at room temperature. Fixation plates can be washed with Tris buffered saline with tween (Boston Bioproducts #IBB-855) 5 times for 5 minutes each. […]
Imaging of the plates can be performed by first locating the nuclei using the DAPI stain. […] Ub-PCNA intensities can be measured for each individual nucleus counted. A histogram of all Ub-PCNA nuclear intensities measured in untreated wells can be generated and a 95% cutoff can be established. […] The number of positive cells can be expressed as a percentage by dividing by the total number of cells in the well. […]

Each structure is given as a SMILES string. Bounds are passed on as bounds.

On to `COc1cc(C)n(-c2ccc(CN3C(=O)CCn4nc(-c5c(Cl)cnn5C(C)C)cc43)cc2)n1`, for which, in data set [1], the concentration for half-maximal inhibition (IC50) fell in the range of 100 to 500 nM. In data set [2], the “Solubility at pH 2.0 (μM)” value is “+ (“+” indicates less than 10 μM)” and the “Solubility at pH 7.4 (μM)” value is “+ (“+” indicates less than 10 μM)”.
With `CCn1cc(C(F)(F)F)nc1-c1ccc(CN2CCCn3nc(-c4c(OC)ncnc4C4CC4)cc32)cc1`, the half-inhibitory concentration (IC50) in data set [1] was below 100 nM. Also, the IC50 in data set [3] is below 100 nM. Further, in data set [2], the “Solubility at pH 2.0 (μM)” value was “++ (“++” indicates 10 μM or greater)” and the “Solubility at pH 7.4 (μM)” value is listed as “+ (“+” indicates less than 10 μM)”.
As for `CCn1cc(C(F)(F)F)nc1-c1ccc(CN2CC(C)Cn3nc(-c4c(Cl)cnn4C(C)C)cc32)cc1F` (centres unmarked), in data set [1], the IC50 is below 100 nM. In data set [3], the half-inhibitory concentration (IC50) is below 100 nM. In addition, in data set [2], the “Solubility at pH 2.0 (μM)” value is on record as “+ (“+” indicates less than 10 μM)” and the “Solubility at pH 7.4 (μM)” value is on record as “+ (“+” indicates less than 10 μM)”.

As a reminder, the IC50 is the concentration needed to halve the response being measured.

The values are drawn from patent US20230219965A1 (KSQ Therapeutics, Inc., priority 2020, published 2023).
